Where two headings read alike, the source gives them in different places.

The format of series [1] is physicochemical. Conditions: 342 ppm water. On the procedure:
Surfactant candidates for water soluble herbicide applications are examined as a replacement for the anionic, nonionic, or anionic/nonionic blend portion and compared to a known industry adjuvant standard for use in paraquat, a water soluble herbicide concentrate formulation. A standard dilution test is conducted whereby the concentrates are diluted in water to determine if solubility is complete.
A known industry paraquat adjuvant (2.8 g) is added and vigorously mixed for 30 s. Deionized water (8.07 g) is added, and mixing resumes for 30 s. […] The cylinder is stoppered and inverted ten times. Solubility is recorded as complete or incomplete. Cylinders are allowed to stand and the amount (in mL) and type of separation are recorded after 30 min., 1 h, 2 h, and 24 h. Results of the solubility testing appear in Table 4 below.
An eight to ten mole alkyl phenol ethoxylate surfactant (0.7 g) is added and vigorously mixed for 30 s. Test sample (0.7 g) is added and mixing resumes for 30 s. Deionized water (4.03 g) is added, and mixing resumes for 30 s.
Test sample (0.7 g) is added and vigorously mixed for 30 s. Sodium linear alkylbenzene sulfonate (“NaLAS,” 0.7 g) is added and mixing resumes for 30 s. Deionized water (4.03 g) is added, and mixing resumes for 30 s.
Test sample (1.4 g) is added and vigorously mixed for 30 s. Deionized water (4.03 g) is added, and mixing resumes for 30 s.

The nature of series [2]: Appearance and solubility of surfactants and of 1:1 molar blends with cationic surfactant. Type of series: physicochemical. The procedure:
The surfactant blends tested are prepared at a 1:1 molar ratio without any pH adjustment. Dilutions are made using deionized water to the desired actives level. Actives amounts are wt. % unless indicated otherwise. Appearances are reported at ambient temperature for samples prepared within the last 24 h.

The mark [3] stands for this setting: Nonionic test sample: replaces nonionic portion (with NaLAS).
Where [4] appears, read: Adjuvant (anionic/nonionic) test sample.

Take “Undecylenic Alcohol Sulfate, Sodium Salt [Unsat. C11 alcohol Na sulfate]”: the “sol (solubility)” value in series [1] (setting [3]) is “I”.
As to “Undecylenic Alcohol, 1EO Ether Sulfate, Ammonium Salt [Unsat. 1EO NH4 sulfate]”, the Solubility entry in series [2] is listed as “good”. Further, the “sol (solubility)” value in series [1] (setting [4]) is on record as “S”. Further, the “Emulsion stability, mL separation, 1 h” value in series [1] (Anionic test sample) is on record as 0 mL.
Take “1-Undecanol, 1EO Ether Sulfate, Ammonium Salt [Sat. 1EO NH4 sulfate]”: the Solubility entry in series [2] is “fair-poor”. Further, the “Appearance, 0.1%” value in series [2] (1:1 molar blend of the anionic with Ammonyx Cetac 30, 0.1% actives, ambient temperature) is “hazy liquid”. For the same substance, the “Appearance, 1.0%” value in series [2] (1:1 molar blend of the anionic with Ammonyx Cetac 30, 1.0% actives, ambient temperature) is “separated”. Besides, the “Emulsion stability, mL separation, 1 h” value in series [1] (setting [4]) and in series [1] (Nonionic test sample) was 0 mL throughout. Further, the “Emulsion stability, mL separation, 24 h” value in series [1] (setting [4]) and in series [1] (Anionic test sample) was 0 mL in each case. The “sol (solubility)” value in series [1] (setting [4]) and in series [1] (setting [3]) was “S” throughout.

The values above are taken from US10287530B2, “Surfactants based on monounsaturated fatty alcohol derivatives” (priority 2013, dated 2019).
